## scFv variants of Ab-14 (light chain) against a SARS-CoV-2 spike peptide

Source: Engelhart et al. 2022 (doi:10.1038/s41597-022-01779-4), MIT Lincoln Laboratory and A-Alpha Bio; data file from the FLAb repository.

All variants were tested on one target, the spike HR2 peptide PDVDLGDISGINAS (SARS-CoV-2).

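Phage display of a naive human antibody library on the peptide gave the parent. Variants in AAYL50 differ from the parent at up to three CDR positions; double and triple changes were sampled at random. In AlphaSeq, yeast of one mating type display the scFv and yeast of the other type display the target. Binding brings cells together so that they mate, and sequencing counts the barcode pairs among the diploids. Each replicate has its own calibration line, from reference interactions of the BCL2 family. There are three technical replicates.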

Ab-14 is the parent antibody, in scFv form: VH, then three GGGGS repeats, then VL. The heavy chain is unchanged in all variants.
VH: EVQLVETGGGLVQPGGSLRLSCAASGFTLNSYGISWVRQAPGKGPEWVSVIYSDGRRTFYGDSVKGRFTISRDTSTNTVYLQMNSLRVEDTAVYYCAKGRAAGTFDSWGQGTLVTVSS
VL: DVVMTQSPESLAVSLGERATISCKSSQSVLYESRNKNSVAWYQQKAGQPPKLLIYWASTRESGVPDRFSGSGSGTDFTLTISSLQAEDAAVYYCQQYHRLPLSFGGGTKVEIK

Changes read parent residue, position, new residue, counted from the first residue of the VL shown. Numbers give log10(Kd / nM), so 0 is 1 nM and 3 is 1 µM. Smaller is tighter. Averages over replicates are reported, and they cover detected replicates only. A pair that was not seen in that replicate is written "ND"; this usually means weak binding, but a binder can also be missed. In this assay the parent's reference entry averaged 0.65; its copy inside this library read 1.68. Nonspecific signal, from three strains lacking the peptide, appeared in 18% of pairings of library AAYL50, centred on 4.19 (5% of these signals below 2.99); values are not corrected for it. For each scFv, signals with the empty controls are counted beside the result, with their mean in brackets.

changes	replicates, log10 nM	mean log10 Kd (nM)	empty controls
Y31K S33W A57R	ND 4.84 4.63	4.74	4/9 (4.22)
Y31D L100T	6.39 ND 6.33	6.36	5/9 (4.44)
S25M Q27I S62F	ND ND ND	ND	0/9
S25I R34M L102T	2.03 1.87 2.04	1.98	4/9 (4.51)
V39G A57W	ND 4.96 ND	4.96	1/9 (4.29)
A57D T59Q Q96N	ND ND 2.09	2.09	1/9 (3.82)
W56R T59N Q96Y	1.68 1.63 1.48	1.60	2/9 (4.18)
A40R T59V	3.13 ND ND	3.13	3/9 (3.78)
N35F N37W E61Q	2.59 3.04 3.32	2.98	2/9 (4.24)
Q27F N35C H98L	3.03 2.94 3.18	3.05	5/9 (3.94)
S26K Y31R R99W	2.36 1.88 2.93	2.39	1/9 (4.41)
K24E S28G R99E	0.42 0.74 0.73	0.63	1/9 (5.10)
Y31C T59N H98N	2.41 2.09 3.01	2.50	0/9
S26F N37K Y97Q	ND ND ND	ND	4/9 (4.31)
Q27S K36A A57V	1.36 1.46 1.49	1.44	2/9 (3.72)
S33G R34D R60W	5.29 4.74 ND	5.02	3/9 (4.42)
S33W R34A N37E	0.67 1.03 0.90	0.87	3/9 (3.34)
Y31M V39N R99K	ND 3.68 ND	3.68	3/9 (3.86)
W56H S62I L100G	ND ND 3.80	3.80	0/9
Q27Y Y31T	0.45 0.68 0.54	0.56	4/9 (5.67)
A40R W56D E61D	ND ND ND	ND	1/9 (2.43)
S33M K36T A57Y	ND ND ND	ND	0/9
V39P W56D S103R	ND 3.22 5.35	4.29	6/9 (4.41)
K24H V39Q	ND ND ND	ND	1/9 (3.05)
N35V T59V S103A	1.16 1.41 1.27	1.28	3/9 (4.21)
Q27G S58A	1.47 1.58 1.63	1.56	4/9 (4.77)
V29N Y31C E61L	1.29 1.39 1.42	1.37	3/9 (4.42)
K24M E32V S33T	ND 3.41 3.51	3.46	1/9 (4.10)
Y31I T59I Q95R	ND ND ND	ND	0/9
N35D S58M P101R	3.02 3.63 ND	3.33	2/9 (4.68)
N35K N37P Y97F	ND ND ND	ND	0/9
L100C	0.96 1.23 1.35	1.18	2/9 (4.00)
Y31L Y97Q L100G	2.57 2.30 2.63	2.50	3/9 (4.13)
K36W A40C P101V	ND ND ND	ND	3/9 (3.35)
W56E E61P R99N	0.15 0.52 0.28	0.32	0/9
S28L A40L Y97C	4.21 3.29 5.98	4.49	4/9 (4.58)
V29E W56D S62M	ND ND 3.04	3.04	1/9 (3.90)
V29Y S58K P101R	ND ND ND	ND	0/9
S26L V29T L30I	0.88 0.98 0.75	0.87	0/9
S62K Q95D L102Q	1.42 1.82 1.51	1.58	2/9 (3.22)
S25K Y97R L102W	ND ND 4.22	4.22	3/9 (4.18)
K24V W56M T59A	1.23 1.39 1.44	1.35	0/9
K36R E61D L102R	ND ND ND	ND	0/9
S25F Q27M W56P	ND ND ND	ND	0/9
Q27D E32R	ND ND ND	ND	0/9

Excerpt, the first 4 entries:

| changes | replicates, log10 nM | mean log10 Kd (nM) | empty controls |
|---|---|---|---|
| Y31K S33W A57R | ND 4.84 4.63 | 4.74 | 4/9 (4.22) |
| Y31D L100T | 6.39 ND 6.33 | 6.36 | 5/9 (4.44) |
| S25M Q27I S62F | ND ND ND | ND | 0/9 |
| S25I R34M L102T | 2.03 1.87 2.04 | 1.98 | 4/9 (4.51) |